## Antibody variant affinities, Ab-14 heavy chain, assay 1

Target: peptide PDVDLGDISGINAS, taken from heptad repeat 2 (HR2) of SARS-CoV-2 spike.

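Phage display of a naive human antibody library on the peptide gave the parent. Variants in AAYL49 differ from the parent at up to three CDR positions; double and triple changes were sampled at random. AlphaSeq pools MATa yeast showing the antibodies with MATalpha yeast showing the peptide. The frequency of each diploid, read from paired DNA barcodes, reflects how well the two displayed proteins bind. Each replicate has its own calibration line, from reference interactions of the BCL2 family. Each pool was mated in three replicate cultures.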

Ab-14 is the parent antibody, in scFv form: VH, then a 15-residue (Gly4Ser)3 linker, then VL. The light chain is unchanged in all variants.
VH: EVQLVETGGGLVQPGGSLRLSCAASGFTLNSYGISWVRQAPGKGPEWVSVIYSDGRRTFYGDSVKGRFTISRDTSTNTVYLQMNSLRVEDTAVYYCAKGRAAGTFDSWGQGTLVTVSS
VL: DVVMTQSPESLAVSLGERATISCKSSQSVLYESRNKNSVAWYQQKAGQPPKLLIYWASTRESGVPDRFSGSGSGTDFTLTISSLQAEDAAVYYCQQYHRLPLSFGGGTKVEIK

Each variant is given by its three heavy chain CDRs, as the data file delimits them; those of the parent are GFTLNSYGIS, VIYSDGRRTFYGDSVK, GRAAGTFDS. The read-out is the apparent dissociation constant on a log10 scale (nM): the lower, the stronger. Averages over replicates are reported, and they cover detected replicates only. Where no diploid with the target was found in that replicate, the entry reads "nd": below detection, most likely a poor binder, though not proof of it. Empty control strains, which show no peptide, gave a signal in 15% of pairings with library AAYL49; the median was 4.06 and 95% of these signals were weaker than 2.83. No background was subtracted. Also given: how often the same scFv was detected with the empty control strains, with their mean in brackets.

CDR-H1 | CDR-H2 | CDR-H3 | replicates, log10 nM | mean, log10 nM | control signals
GYTLNSYGIS | VIYSDGRRTFYTDSTK | GRAAGTFDS | nd nd 3.55 | 3.55 | 1/9 (5.48)
GFTLNSYGIS | EIYSDGRRTFYGDSGK | GRAAGTADS | nd nd nd | nd | 2/9 (4.42)
GFTLNSYGIS | VIYSDGRRGFYGDCVK | GRAMGTFDS | 5.24 4.21 5.08 | 4.84 | 6/9 (4.89)
GFTLNSYGIS | VIYSDIRRTFYGDSVK | GRAAGYFDW | nd nd nd | nd | 0/9
GFTLNSYGIS | VIDSDGRRFFYGDSVK | GRAAGTPDS | nd nd nd | nd | 1/9 (3.46)
GFTLNSYPYS | VIYSDGRRTFYGDSVK | GRAAGTFFS | nd nd nd | nd | 0/9
GFFRNSYGIS | VIYSDGRRTFQGDSVK | GRAAGTFDS | nd nd nd | nd | 0/9
GFTLNRYGIS | VIYSDVRRTFYGDCVK | GRAAGTFDS | nd nd nd | nd | 0/9
GFTLLSYGIS | VIYSDGRRTFYGDSVK | SRAAGTFDS | nd nd nd | nd | 0/9
GFTLNSRGIS | VIYSDGRKRFYGDSVK | GRAAGTFDS | 5.94 nd 4.76 | 5.35 | 0/9
GFTLTSRGIS | VIYSDGRRTFYGDSVK | GRWAGTFDS | nd 3.69 4.50 | 4.10 | 2/9 (4.61)
GFTQNSYGIS | VIYSDGRRTFYGDSVT | RRAAGTFDS | nd nd 4.44 | 4.44 | 0/9
GFTLNSYGIS | VVYSGGRRTFYGDSVK | GRAAGTFDL | nd nd nd | nd | 0/9
GFTLNSYGNS | VIYSFGRRTFYGESVK | GRAAGTFDS | nd nd nd | nd | 0/9
GFTLNQYGIF | VIYSDGRRTFYKDSVK | GRAAGTFDS | nd nd nd | nd | 0/9
GFTLNSYGIS | VIYSDGRRTLYHDSVK | GRAAETFDS | nd 3.90 nd | 3.90 | 1/9 (3.60)
GGTLNSYGIS | VIYSDGRRRFYGDSVK | GRAAGTFDS | 5.70 nd nd | 5.70 | 2/9 (3.87)
GFTLNSYGIS | VIYSDGNRTFYGDSVK | GRDAWTFDS | nd nd nd | nd | 0/9
GFEQNSYGIS | VIYPDGRRTFYGDSVK | GRAAGTFDS | 3.93 nd 4.26 | 4.09 | 3/9 (4.16)
GFTLNSEGIK | EIYSDGRRTFYGDSVK | GRAAGTFDS | nd nd nd | nd | 0/9
GFTLNSYGIS | VIYSDGRLTFYGDSVK | GRAAGNFDS | 3.72 nd nd | 3.72 | 2/9 (3.74)
GLTLNSYGIS | VIYSDGRRTMYGDSYK | GRAAGTFDS | 3.91 nd 5.03 | 4.47 | 2/9 (3.93)
GFTLNSYGIN | VIYSDGIRTFVGDSVK | GRAAGTFDS | 5.30 nd nd | 5.30 | 2/9 (3.92)
GFTLNSYGIS | VIYSDGRRTFYGDSVK | GRAANTFDS | 1.16 1.20 0.96 | 1.10 | 1/9 (3.79)
GFTLISDGIS | VIYSDGRRTFYGDSVK | GRAAGTFDS | 5.54 4.08 nd | 4.81 | 4/9 (4.06)
GFTLNMYGDS | VIYSDGRRTFYGDSVK | GKAAGTFDS | nd nd nd | nd | 0/9
GFTLNCYGIS | VIYSDGRRTFYADSVK | KRAAGTFDS | 1.26 1.45 1.40 | 1.37 | 0/9
GFTLNSYGIS | VINSDGRRTFMGTSVK | GRAAGTFDS | nd nd nd | nd | 0/9
GFTLMSYGIS | VFYSDGRRTFYGDSVK | GRAAGTFDS | nd nd nd | nd | 0/9
GFTLNSYGIS | MIYIDGRRTFYGDSVK | GRIAGTFDS | nd 3.72 5.22 | 4.47 | 3/9 (5.18)
TFTLNSYGIS | VCYSDGRRTFYGDSKK | GRAAGTFDS | 4.47 3.81 nd | 4.14 | 1/9 (3.59)
GFTLNSYGIS | VIYSDGRRTFYGDSVK | GRAAGTYDS | 1.02 1.37 0.99 | 1.13 | 0/9
GFTLNSYLIS | VIYPDGRRTFYGDSVK | GRAALTFDS | nd nd nd | nd | 0/9
GFTGNSYGIS | VIYSDGRRTQYGDSVV | GRAAGTFDS | 3.63 nd 4.54 | 4.08 | 5/9 (4.22)
GFTLNGYGIS | VKYSDGRRTFYGDSVK | GRAAATFDS | nd nd nd | nd | 0/9
GFTLNSYGIS | VIRSDGRRTFYGDSVK | GRAAGIFDS | nd nd nd | nd | 0/9
EFSLNSYGCS | VIYSDGRRTFYGDSVK | GRAAGTFDS | nd nd nd | nd | 0/9
GFTLNSYGIS | VIYSDGRFDFYGDSVK | GRKAGTFDS | nd nd 5.11 | 5.11 | 3/9 (4.52)
GFTLNSYGIS | HIYSDGRRDFYGDGVK | GRAAGTFDS | nd nd nd | nd | 1/9 (3.37)
GFTLNSHGIS | VIYSDGDRTFYGDSVK | GRAAGTFDM | 3.14 nd nd | 3.14 | 0/9
GFTFNSYNIS | VIYSDGRRTFYGDSVK | GRAAGTFDH | nd nd nd | nd | 1/9 (2.89)
GFDLNSYGIS | VIYSDGGRTFYGDSVK | GRQAGTFDS | 0.69 0.79 0.90 | 0.80 | 0/9
GFTLNSYGIS | VIYSDWRRTFYGPHVK | GRAAGTFDS | nd 3.36 nd | 3.36 | 2/9 (4.03)
GFTLNSYGIS | VIYSDGRVTFYGDSVK | GRAEGTFGS | nd nd nd | nd | 0/9
DFTLNSYGIS | VIYSDGRRTFYPDSGK | GRAAGTFDS | nd nd nd | nd | 3/9 (3.66)
GFTLNSYGIS | VIYSDGRRTFYGMSVK | GHAPGTFDS | nd nd nd | nd | 0/9
GFTLFSYGIS | VIYSDHRQTFYGDSVK | GRAAGTFDS | nd nd nd | nd | 0/9
GFTLNSTGIS | VIYSDGRRRFAGDSVK | GRAAGTFDS | nd 3.56 nd | 3.56 | 4/9 (4.41)

Excerpt, the first 6 entries:

| CDR-H1 | CDR-H2 | CDR-H3 | replicates, log10 nM | mean, log10 nM | control signals |
|---|---|---|---|---|---|
| GYTLNSYGIS | VIYSDGRRTFYTDSTK | GRAAGTFDS | nd nd 3.55 | 3.55 | 1/9 (5.48) |
| GFTLNSYGIS | EIYSDGRRTFYGDSGK | GRAAGTADS | nd nd nd | nd | 2/9 (4.42) |
| GFTLNSYGIS | VIYSDGRRGFYGDCVK | GRAMGTFDS | 5.24 4.21 5.08 | 4.84 | 6/9 (4.89) |
| GFTLNSYGIS | VIYSDIRRTFYGDSVK | GRAAGYFDW | nd nd nd | nd | 0/9 |
| GFTLNSYGIS | VIDSDGRRFFYGDSVK | GRAAGTPDS | nd nd nd | nd | 1/9 (3.46) |
| GFTLNSYPYS | VIYSDGRRTFYGDSVK | GRAAGTFFS | nd nd nd | nd | 0/9 |

In this assay the parent's reference entry averaged 0.65; its copy inside this library read 4.11 (one replicate of three).

From the AlphaSeq antibody data of Engelhart et al. 2022 (doi:10.1038/s41597-022-01779-4), copy in the FLAb collection.